One molecule from PubChem BioAssay AID488899 (Broad Institute, 2010) can be followed below.

By inhibition is commonly meant the relative decrease from the control value, in per cent.

The list shows a part of the results, in another mix than the full data. Calls of active or inactive are those of the source.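 The calls were made as follows: active = mean inhibition across replicates of 60% or more, whatever share of single replicates reaches that level; inconclusive = some that reach 60%, reason not given; inactive = mean inhibition across replicates below 60%.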

This test can be described thus: inhibitors of MITF-dependent TRPM1 promoter reporter, primary screen, cell-based, SK-MEL-5, single point, luciferase (AID 488899). The note with it: SK-MEL-5 TRPM1 promoter luciferase, 24 h; at 12.5 µM; stronger effect = higher value.
For the molecule `CCCOc1ccc(NP(C)(=O)Oc2ccc(Cl)cc2)cc1` (stereo unspecified), the inhibition was inactive: 2.38%.
